# Ab-14 light chain CDR variants: yeast mating affinities

Data: MIT Lincoln Laboratory AlphaSeq set, Li et al. 2023, doi:10.1038/s41467-023-39022-2, as distributed in FLAb.

Antigen: PDVDLGDISGINAS, a 14-residue peptide of the SARS-CoV-2 spike HR2 region.

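The starting antibody came from a phage panning campaign against this peptide. The variants were designed computationally from a first round of random CDR variants and then made and measured. Several design methods are mixed in this list. The scFvs were displayed on barcoded MATa yeast, the peptide on MATalpha yeast. After mating in shaken culture at 30 °C for 16 h, diploids were selected and their barcode pairs sequenced. Each replicate has its own calibration line, from reference interactions of the BCL2 family. Mating was done six times.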

The variants keep the heavy chain, the linker and the frameworks of Ab-14 (scFv order VH, a (GGGGS)3 linker, VL).
VH: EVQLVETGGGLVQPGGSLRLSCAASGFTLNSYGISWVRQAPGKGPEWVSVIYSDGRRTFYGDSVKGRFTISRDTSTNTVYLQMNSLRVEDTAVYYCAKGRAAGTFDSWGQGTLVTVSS
VL: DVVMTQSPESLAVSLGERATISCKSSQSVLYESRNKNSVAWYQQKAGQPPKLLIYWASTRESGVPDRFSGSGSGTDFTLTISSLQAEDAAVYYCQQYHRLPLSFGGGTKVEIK

Variants are written as CDR1, CDR2 and CDR3 of the light chain (limits as in the source). Parent: KSSQSVLYESRNKNSVA, WASTRES, QQYHRLPLS.
Variants here have more than six changes.
Scale: log10 of Kd in nM, estimated from mating counts; low values are strong binders.
A mean of the replicates is given; it leaves out those without a signal.
"nd" means that the variant was in the library but no mating with the target was seen in any replicate; the authors take this as a sign of poor binding, and no number exists.
As a blank, each scFv also met three strains without target: over all light chain designs, 4% of these pairings were detected, typically at 2.64 and seldom below 1.59. The control count says in how many pairings with the empty strains this scFv gave a signal.
The range of this assay differs from that of the first round, and the authors advise against merging the two.
The parent sequence was in this pool as ten entries: three were never detected, three once, and four in most replicates, with averages from 0.34 to 2.37.
In the paper, a design with two or fewer of six values counts as a poor binder.

- KFAEQIMHVYQGANAIA | DVTNKSA | QQYLRLPLM = 1.57 (6 of 6 replicates; controls 0 of 18)
- KFSGSHLYESRMGNSVA | NASQRED | QQYHRLPLS = -0.16 (6 of 6 replicates; controls 0 of 18)
- KISMLQRYESQNKNSIA | EMSRREN | QQYHRLPLS = 0.48 (6 of 6 replicates; controls 1 of 18)
- MISQLMNMGQFAINSVA | QANIRNA | QQYDRLPLA = 1.32 (6 of 6 replicates; controls 3 of 18)
- IVSQLMLWGMHVKNSIA | EAQTRVN | QQYDRLPLF = 1.64 (2 of 6 replicates; controls 0 of 18)
- TISQVTGLLQHNTNSVA | DMNTRGS | QQYDRLPLS = 0.22 (6 of 6 replicates; controls 3 of 18)
- IFSQSVLMGQMTRNSVA | QASTRFN | QQYDRLPLI = 1.51 (6 of 6 replicates; controls 1 of 18)
- KLDPSHLGESRNKNAVA | QASTREE | QQYHRLPLS = -0.06 (6 of 6 replicates; controls 2 of 18)
- KFANQLVYWNQGQNAIA | DVTTKSA | QQYLRLPLM = 0.60 (6 of 6 replicates; controls 0 of 18)
- VLPDNLLMSESQYHSIA | NGVQRME | QQYMRLPLT = -0.07 (6 of 6 replicates; controls 0 of 18)
- HLSLRLSYGKMLQNAVA | GVQHRMT | QQYARLPLL = 1.45 (2 of 6 replicates; controls 0 of 18)
- KLPNSKLYESRMKNQVA | SASTREM | QQYHRLPLS = 0.75 (6 of 6 replicates; controls 1 of 18)
- NLVGRVPDNYQGRNAIA | DMHCRAG | QQYERLPLA = 0.62 (6 of 6 replicates; controls 0 of 18)
- TISQSVLMTGLNRNSVA | QAEERLT | QQYHRLPLS = nd (0 of 6 replicates; controls 0 of 18)
- ILYESVGTLSRNRNSVA | DNSTREK | QQYDRLPLS = 0.02 (6 of 6 replicates; controls 1 of 18)
- TISQAFLMENQFKNSVA | QASTRES | QCYDRLPLS = 2.57 (2 of 6 replicates; controls 2 of 18)
- TISYSALMTGLNRNSVA | QAEERLT | QQYHRLPLS = 1.62 (6 of 6 replicates; controls 0 of 18)
- KISYQYRYEQLSKNNIA | EVVTRLK | QQYHRLPLS = nd (0 of 6 replicates; controls 0 of 18)
- HLTQSVDLESVHKNSIA | DLMTRES | QQYHRLPLS = 0.06 (6 of 6 replicates; controls 1 of 18)
- KLGQMTAIESRNLNNVA | QMDTRES | QQYHRLPLS = -0.21 (6 of 6 replicates; controls 2 of 18)
- ALGDVTRMESNKKNSIA | DMSTREA | QQYHRLPLS = 0.18 (6 of 6 replicates; controls 1 of 18)
- TISQMFLGESRLRNSVA | QASTRES | QSYDRLPLS = 0.66 (6 of 6 replicates; controls 1 of 18)
- KQDFSCPGEQRNKNSVA | SASTRMS | QQYHRLPLS = 0.21 (6 of 6 replicates; controls 0 of 18)
- SFDLTKEGMENQQYSIA | ERNELMT | QDYHRLPLA = 2.35 (1 of 6 replicates; controls 1 of 18)
- VLAMESYGKSRHESNIA | GANMLAQ | QQYARLPFA = -0.05 (6 of 6 replicates; controls 0 of 18)
- TLMYAGEQEGEEKKSVA | NAIIKNE | QQYVRLPLA = 0.57 (6 of 6 replicates; controls 1 of 18)
- KISMLSNQTFEMSNNVA | EMVTREK | QQYNRLPLS = 1.33 (6 of 6 replicates; controls 0 of 18)
- KLQQSVMFMSGVYNSVA | QMSTRAE | QCYHRLPLS = 2.38 (5 of 6 replicates; controls 0 of 18)
- QLEQDQFPMGKGWHSIA | NATTLVA | QQYYYLPLA = 0.48 (6 of 6 replicates; controls 1 of 18)
- KLQMLELYEGRWKNSVA | SASTRES | QQYHRLPLS = 0.71 (6 of 6 replicates; controls 2 of 18)
- KLTSTMRFEQKKKNNIA | EVSERSK | QQYFRLPLA = 1.31 (6 of 6 replicates; controls 0 of 18)
- IIAENSDNLTEKLNSIA | ETSQVRQ | QQYHLLPLA = nd (0 of 6 replicates; controls 0 of 18)

The first 3 variants above that were never detected:

* TISQSVLMTGLNRNSVA | QAEERLT | QQYHRLPLS -> nd (0 of 6 replicates; controls 0 of 18)
* KISYQYRYEQLSKNNIA | EVVTRLK | QQYHRLPLS -> nd (0 of 6 replicates; controls 0 of 18)
* IIAENSDNLTEKLNSIA | ETSQVRQ | QQYHLLPLA -> nd (0 of 6 replicates; controls 0 of 18)